Patent publication US20150150960A1, “PROTECTION AGAINST DENGUE VIRUS AND PREVENTION OF SEVERE DENGUE DISEASE” (priority 2010, published 2015)
Read-outs that look alike come from different tables or passages of the source.

System: PBMC of DENV seropositive human donors
Type: cell-based
Details: ex vivo IFNγ ELISPOT
[1] = allele B*5801, Sri Lankan donors
[2] = allele B*3501, Sri Lankan donors
[3] = allele A*0201, Sri Lankan donors
[4] = allele B*0702, Sri Lankan donors
[5] = allele A*2402, Sri Lankan donors
[6] = allele B*4001, Sri Lankan donors

SMILES: CC[C@H](C)[C@H](NC(=O)[C@@H]1CCCN1C(=O)CNC(=O)[C@@H](NC(=O)[C@H](C)N)[C@@H](C)O)C(=O)N[C@@H](CC(C)C)C(=O)N[C@H](C(=O)N[C@@H](CC(C)C)C(=O)N[C@@H](Cc1c[nH]c2ccccc12)C(=O)O)[C@@H](C)O
- T cell response [SFC] [1]: 27 SFC

SMILES: C[C@@H](O)[C@H](N)C(=O)N1CCC[C@H]1C(=O)N1CCC[C@H]1C(=O)NCC(=O)N[C@@H](CO)C(=O)N[C@@H](CCCNC(=N)N)C(=O)N[C@@H](CC(=O)O)C(=O)N1CCC[C@H]1C(=O)N[C@@H](Cc1ccccc1)C(=O)O
- T cell response [SFC] [2]: 210 SFC

SMILES: CC[C@H](C)[C@H](NC(=O)[C@H](CC(C)C)NC(=O)[C@H](CC(C)C)NC(=O)[C@@H](N)CCSC)C(=O)N[C@@H](CC(C)C)C(=O)N[C@@H](CS)C(=O)N[C@H](C(=O)N[C@H](C(=O)N[C@@H](CCC(N)=O)C(=O)N[C@H](C(=O)O)C(C)C)[C@@H](C)O)C(C)C
- T cell response [SFC] [3]: 103 SFC

SMILES: CC[C@H](C)[C@H](NC(=O)[C@@H]1CCCN1C(=O)CNC(=O)[C@@H](NC(=O)[C@H](C)N)[C@@H](C)O)C(=O)N[C@@H](CO)C(=O)N[C@H](C(=O)N[C@@H](CC(C)C)C(=O)N[C@@H](Cc1c[nH]c2ccccc12)C(=O)O)[C@@H](C)O
- T cell response [SFC] [1]: 163 SFC

SMILES: CC[C@H](C)[C@H](NC(=O)[C@H](CO)NC(=O)[C@H](CC(C)C)NC(=O)[C@H](C)NC(=O)[C@@H](N)CCSC)C(=O)N[C@H](C(=O)N[C@@H](CO)C(=O)N[C@@H](CC(C)C)C(=O)N[C@@H](Cc1ccccc1)C(=O)O)C(C)C
- T cell response [SFC] (allele B*5101, Sri Lankan donors): 340 SFC

SMILES: CC[C@H](C)[C@H](NC(=O)[C@@H](NC(=O)[C@@H](N)CO)[C@@H](C)CC)C(=O)N[C@@H](CC(C)C)C(=O)N[C@@H](CCC(=O)O)C(=O)N[C@@H](Cc1ccccc1)C(=O)N[C@@H](Cc1ccccc1)C(=O)N[C@@H](CC(C)C)C(=O)N[C@@H](CCSC)C(=O)N[C@H](C(=O)O)C(C)C
- T cell response [SFC] [3]: 737 SFC

SMILES: CC(C)C[C@H](NC(=O)[C@@H](NC(=O)[C@H](Cc1c[nH]c2ccccc12)NC(=O)[C@H](C)NC(=O)[C@H](CO)NC(=O)[C@H](C)NC(=O)[C@@H]1CCCN1C(=O)[C@@H](N)Cc1c[nH]cn1)[C@@H](C)O)C(=O)N[C@@H](Cc1ccc(O)cc1)C(=O)O
- T cell response [SFC] [2]: 38 SFC

SMILES: CSCC[C@H](NC(=O)[C@H](Cc1ccc(O)cc1)NC(=O)[C@@H]1CCCN1C(=O)[C@H](CC(N)=O)NC(=O)[C@H](CC(C)C)NC(=O)[C@@H](N)C(C)C)C(=O)N1CCC[C@H]1C(=O)N[C@@H](CO)C(=O)N[C@H](C(=O)O)C(C)C
- T cell response [SFC] (human donors, allele A*0201): 987 SFC

SMILES: CC[C@H](C)[C@H](NC(=O)[C@@H](NC(=O)[C@@H]1CCCN1C(=O)[C@H](CO)NC(=O)CNC(=O)[C@H](CO)NC(=O)[C@@H](NC(=O)CNC(=O)[C@@H]1CCCN1C(=O)[C@@H](N)CCCCN)[C@@H](C)O)[C@@H](C)CC)C(=O)O
- T cell response [SFC] [4]: 365 SFC

SMILES: CC[C@H](C)[C@H](N)C(=O)N[C@@H](CCC(N)=O)C(=O)N1CCC[C@H]1C(=O)N[C@@H](Cc1ccccc1)C(=O)N[C@@H](CC(C)C)C(=O)N[C@@H](C)C(=O)N[C@@H](CC(C)C)C(=O)NCC(=O)N[C@@H](Cc1ccccc1)C(=O)O
- T cell response [SFC] [5]: 27 SFC

SMILES: CSCC[C@H](NC(=O)[C@H](C)NC(=O)[C@H](CCSC)NC(=O)[C@H](CC(C)C)NC(=O)[C@@H](N)[C@@H](C)O)C(=O)N[C@@H](CC(=O)O)C(=O)N[C@@H](CC(C)C)C(=O)NCC(=O)N[C@@H](CCC(=O)O)C(=O)N[C@@H](CC(C)C)C(=O)O
- T cell response [SFC] [3]: 67 SFC

SMILES: C[C@H](NC(=O)[C@H](Cc1c[nH]c2ccccc12)NC(=O)[C@@H](NC(=O)[C@H](CCCNC(=N)N)NC(=O)[C@H](Cc1ccc(O)cc1)NC(=O)[C@@H]1CCCN1C(=O)[C@H](CC(N)=O)NC(=O)[C@H](CCC(=O)O)NC(=O)[C@@H](N)CCC(N)=O)[C@@H](C)O)C(=O)N[C@@H](Cc1ccc(O)cc1)C(=O)O
- T cell response [SFC] (human donors, allele B*4001): 992 SFC

SMILES: CC[C@H](C)[C@H](NC(=O)[C@H](C)NC(=O)[C@@H]1CCCN1C(=O)[C@@H](NC(=O)[C@H](CCC(N)=O)NC(=O)[C@H](Cc1ccc(O)cc1)NC(=O)[C@H](CCCNC(=N)N)NC(=O)[C@@H](NC(=O)[C@@H]1CCCN1C(=O)[C@@H](N)CC(C)C)[C@@H](C)CC)[C@@H](C)O)C(=O)O
- T cell response [SFC] [2]: 195 SFC

SMILES: CSCC[C@H](NC(=O)CNC(=O)[C@H](CCCCN)NC(=O)[C@H](CC(C)C)NC(=O)[C@H](C)NC(=O)[C@H](CCC(=O)O)NC(=O)[C@H](C)NC(=O)[C@H](CCSC)NC(=O)[C@H](CCC(=O)O)NC(=O)[C@@H](N)CO)C(=O)O
- T cell response [SFC] [6]: 120 SFC

SMILES: CC[C@H](C)[C@H](N)C(=O)N[C@H](C(=O)N[C@@H](CC(C)C)C(=O)N[C@@H](CC(C)C)C(=O)N[C@@H](CS)C(=O)N[C@@H](CC(C)C)C(=O)N[C@H](C(=O)N1CCC[C@H]1C(=O)N[C@H](C(=O)N[C@H](C(=O)O)C(C)C)[C@@H](C)O)[C@@H](C)CC)[C@@H](C)O
- T cell response [SFC] [3]: 43 SFC

SMILES: CC(C)C[C@H](NC(=O)[C@H](C)NC(=O)[C@H](CCC(=O)O)NC(=O)[C@H](Cc1ccccc1)NC(=O)[C@H](CCC(=O)O)NC(=O)[C@H](CC(C)C)NC(=O)[C@H](Cc1ccc(O)cc1)NC(=O)[C@@H](N)CCCNC(=N)N)C(=O)NCC(=O)N[C@@H](Cc1ccccc1)C(=O)O
- T cell response [SFC] (human donors, allele A*2402): 130 SFC

SMILES: CC[C@H](C)[C@H](NC(=O)[C@H](CCSC)NC(=O)[C@H](CC(N)=O)NC(=O)[C@@H]1CCCN1C(=O)[C@@H](N)CC(N)=O)C(=O)N[C@@H](CC(=O)O)C(=O)N[C@@H](CCCCN)C(=O)N[C@H](C(=O)N1CCC[C@H]1C(=O)N[C@H](C(=O)O)C(C)C)[C@@H](C)O
- T cell response [SFC] (human donors, allele B*0702): 207 SFC

SMILES: CC(C)C[C@H](NC(=O)[C@@H](NC(=O)[C@@H]1CCCN1C(=O)CNC(=O)[C@@H](NC(=O)[C@H](C)N)[C@@H](C)O)C(C)C)C(=O)N[C@H](C(=O)N[C@@H](CC(C)C)C(=O)N[C@@H](Cc1c[nH]c2ccccc12)C(=O)O)[C@@H](C)O
- T cell response [SFC] [1]: 185 SFC

SMILES: CC(C)C[C@H](NC(=O)CNC(=O)[C@H](CCC(=O)O)NC(=O)CN)C(=O)N[C@@H](Cc1c[nH]cn1)C(=O)N[C@@H](CCCCN)C(=O)N[C@@H](CC(C)C)C(=O)NCC(=O)N[C@@H](Cc1ccc(O)cc1)C(=O)O
- T cell response [SFC] (human donors, allele B*4403): 248 SFC

SMILES: CC[C@H](C)[C@H](N)C(=O)N[C@@H](C)C(=O)N[C@H](C(=O)N[C@@H](CO)C(=O)N[C@H](C(=O)N[C@@H](C)C(=O)N[C@@H](CC(N)=O)C(=O)N[C@H](C(=O)N[C@@H](Cc1ccccc1)C(=O)O)[C@@H](C)CC)[C@@H](C)O)C(C)C
- T cell response [SFC] [1]: 135 SFC

SMILES: CC[C@H](C)[C@H](NC(=O)[C@H](C)NC(=O)[C@H](CCCNC(=N)N)NC(=O)[C@H](CO)NC(=O)CNC(=O)[C@@H](N)CCCCN)C(=O)N[C@@H](Cc1c[nH]c2ccccc12)C(=O)N[C@@H](Cc1ccc(O)cc1)C(=O)N[C@@H](CCSC)C(=O)N[C@@H](Cc1c[nH]c2ccccc12)C(=O)O
- T cell response [SFC] (human donors, allele B*5801): 335 SFC

SMILES: CC[C@H](C)[C@H](NC(=O)[C@@H](NC(=O)[C@@H](N)CCCNC(=N)N)C(C)C)C(=O)N[C@@H](CC(=O)O)C(=O)N1CCC[C@H]1C(=O)N[C@@H](CCCNC(=N)N)C(=O)N[C@@H](CCCNC(=N)N)C(=O)N[C@@H](CS)C(=O)N[C@@H](CCSC)C(=O)N[C@@H](CCCCN)C(=O)O
- T cell response [SFC] (allele A*0301, Sri Lankan donors): 160 SFC
- T cell response [SFC] (allele A*1101, Sri Lankan donors): 93 SFC
- T cell response [SFC] (allele A*3101, Sri Lankan donors): 115 SFC

SMILES: CC[C@H](C)[C@H](NC(=O)[C@H](CO)NC(=O)[C@@H](NC(=O)[C@H](CCSC)NC(=O)CNC(=O)[C@@H](NC(=O)[C@H](C)NC(=O)[C@@H](N)CCSC)C(C)C)C(C)C)C(=O)N[C@@H](CC(C)C)C(=O)O
- T cell response [SFC] [2]: 172 SFC

SMILES: CSCC[C@H](NC(=O)[C@H](CCSC)NC(=O)[C@@H](N)CCSC)C(=O)N[C@@H](CC(C)C)C(=O)N1CCC[C@H]1C(=O)N[C@@H](C)C(=O)N[C@H](C(=O)N[C@@H](CC(C)C)C(=O)N[C@@H](C)C(=O)O)[C@@H](C)O
- T cell response [SFC] [3]: 62 SFC

SMILES: CC[C@H](C)[C@H](NC(=O)CNC(=O)[C@H](CCC(=O)O)NC(=O)CNC(=O)[C@H](CCC(=O)O)NC(=O)[C@H](CCSC)NC(=O)[C@H](CCC(N)=O)NC(=O)[C@@H](N)CCCNC(=N)N)C(=O)N[C@@H](Cc1ccccc1)C(=O)O
- T cell response [SFC] (human donors, allele B*1501): 583 SFC

SMILES: CC(C)C[C@H](NC(=O)[C@H](CS)NC(=O)[C@H](CCCNC(=N)N)NC(=O)[C@H](CCCNC(=N)N)NC(=O)[C@@H]1CCCN1C(=O)[C@@H](N)CC(=O)O)C(=O)N[C@@H](CCCCN)C(=O)N1CCC[C@H]1C(=O)N[C@H](C(=O)O)C(C)C
- T cell response [SFC] [4]: 115 SFC

SMILES: C[C@@H](O)[C@H](NC(=O)[C@H](Cc1ccccc1)NC(=O)[C@H](CS)NC(=O)[C@H](Cc1c[nH]c2ccccc12)NC(=O)[C@H](CCC(=O)O)NC(=O)[C@@H](N)CCCNC(=N)N)C(=O)NCC(=O)N[C@@H](CCC(=O)O)C(=O)N[C@@H](CCCNC(=N)N)C(=O)N[C@@H](CC(N)=O)C(=O)O
- T cell response [SFC] [6]: 48 SFC

SMILES: CC[C@H](C)[C@H](NC(=O)[C@H](C)NC(=O)[C@H](Cc1ccc(O)cc1)NC(=O)[C@H](Cc1c[nH]cn1)NC(=O)[C@@H](NC(=O)[C@@H](NC(=O)[C@H](CC(C)C)NC(=O)[C@H](CC(C)C)NC(=O)[C@H](CC(C)C)NC(=O)[C@@H](N)C(C)C)C(C)C)[C@@H](C)O)C(=O)O
- T cell response [SFC] [3]: 260 SFC

SMILES: CC[C@H](C)[C@H](NC(=O)[C@H](Cc1ccc(O)cc1)NC(=O)[C@@H](N)CCC(N)=O)C(=O)N[C@@H](Cc1ccccc1)C(=O)N[C@H](C(=O)NCC(=O)N[C@@H](CCC(N)=O)C(=O)N1CCC[C@H]1C(=O)N[C@@H](CC(C)C)C(=O)O)[C@@H](C)O
- T cell response [SFC] [5]: 78 SFC
